The list shows a part of the results. Some tests of the compounds listed are not included; inactive here does not mean inactive elsewhere. Records with an inconclusive call do not appear. The source made the active and inactive calls. Calls come from the whole dose curve; as a rule, active = well fitted inhibition curve with a large enough effect; inconclusive = small, poorly fitted or top-dose-only effect, or effect the other way, or another doubt; inactive = no such curve, though single readings can be large or run the other way.

For this assay, the target named is Lysosomal alpha-glucosidase (Homo sapiens) (UniProt P10253). Briefly: qHTS Assay for Inhibitors of Human alpha-Glucosidase as a Potential Chaperone Treatment of Pompe Disease.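 Note: plate controls were uninhibited enzyme wells for no effect and no-enzyme background for full effect.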 Conditions: purified human GAA, 4-MU-alpha-glucoside fluorescence; at 76.9 µM (top of the series). Background: Quantitative high-throughput screening tests each substance at several concentrations.
As to `CN(C)c1cccc(C(=O)NCC2(N(C)C)CCCCC2)c1`, the activity change, negative = inhibition was inactive: 0.763%. Regarding `O=C(OC1CN2CCC1CC2)C(CO)(c1ccccc1)c1ccccc1` (stereo not drawn), the activity change, negative = inhibition was inactive: -0.329%. Next, `CCN1CCCC(OC(=O)C2(O)c3ccccc3C=Cc3ccccc32)C1` (stereo not drawn): inactive: 5.34%. Next, `C=CCN1CCN(CCOC(=O)C(O)(c2ccccc2)c2ccccc2)CC1`: inactive: 8.3%; `Cc1ccccc1C(=O)NCC1(N2CCCCC2)CCCCC1`: inactive: -7.14%; `CN(C)C1CCCC1OC(=O)C(O)(c1ccccc1)c1ccccc1` (stereo not drawn): inactive: 4.13%. Next, `CC(C)N1C(=O)CC2(CCN(CCOC(=O)C(O)(c3ccccc3)c3ccccc3)CC2)C1=O`: inactive: -12.1%; `O=C(NCC1(N2CCCCC2)CCCCC1)c1cc([N+](=O)[O-])ccc1Cl`: inactive: 0.311%.

Values taken from PubChem BioAssay AID1466 (National Center for Advancing Translational Sciences (NCATS), 2008).
